# Source: PubChem BioAssay AID957 (National Center for Advancing Translational Sciences (NCATS), 2007)
# Only a part is listed here, and it is no random draw. The source made the active and inactive calls. Calls follow the shape of the dose curve; as a rule, active = well fitted curve in the direction sought with a large enough effect; inconclusive = small, poorly fitted or top-dose-only effect, or another doubt; inactive = no such curve, though single readings can be large or run the other way.
# Biological target: Alpha-galactosidase A (Homo sapiens) (UniProt P06280)
# Assay: Counterscreen for Glucocerebrosidase Inhibitors: qHTS Assay for Coffee Bean alpha-Galactosidase at pH 4.5;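 also: plate controls were enzyme alone for no effect and no enzyme for full effect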
# Conditions: purified coffee bean alpha-galactosidase, fluorogenic substrate; at 76.9 µM (top of the series)
# Excerpt: NIH Chemical Genomics Center [NCGC]
# NIH Molecular Libraries Screening Centers Network [MLSCN]
# PI Name: Zheng, Wei [NIH]
# Alpha-galactosidase is a homodimeric glycoprotein that hydrolyzes the terminal alpha-galactosyl moieties from glycolipids and glycoproteins. Deficiency of this enzyme results in Fabry Disease with progressive accumulation of globotriaosylceramide and other glycosphingolipids in vascular endothelial cells that causes renal failure, myocardial infarction and stroke, and premature death in patients. It has reported that the improper folding and trafficking of alpha-galactosidase resulted from the genetic mutations may account for a significant numbers of Fabry patients. […]
# This is a fluorogenic enzyme assay with 4-Methylumbelliferyl alpha-D-galactopyranoside as the substrate and green coffee bean alpha-glucosidase (from Sigma-Aldrich) as the enzyme preparation. […] 4-Methyllumbelliferone, can be excited at 365 nm and emits at 440 nm which can be detected by a standard fluorescence plate reader. […] In the AC50 values were determined from concentration-response data modeled with the standard Hill equation. […]
# (6) Detect the assay plate in a ViewLux plate reader (PerkinElmer) with Ex=365 nm and Em=440nm. […]
smiles,measurement,value
N#[O+].[C-]#N.[C-]#N.[C-]#N.[C-]#N.[C-]#N.[Fe+2].[Na+].[Na+],"activity change, negative = inhibition",inactive: -0.936%
